Assay [1] has as its target Mitogen-activated protein kinase 14 (Homo sapiens, UniProt Q16539). Also on record: species or system Escherichia coli.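 Also: inhibition of p38alpha enzyme activity in a biochemical kinase assay, with myelin basic protein serving as substrate; in other assays of this panel Not Active means under 50% inhibition at 10 µM.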
Assay [2] addresses 5-hydroxytryptamine receptor 2B (Homo sapiens, UniProt P41595). It is filed as cell membranes, CHO-K1, Membrane.
Assay [3] deals with Sigma non-opioid intracellular receptor 1 (Homo sapiens, UniProt Q99720). The experiment in a line: DRUGMATRIX: Sigma1 radioligand binding (ligand: [3H] Haloperidol). As to conditions: Not Active = under 50% inhibition at 10 µM. It is filed as cell membranes, Jurkat, Membrane.
For assay [4], the target named is T1, Alpha-1A adrenergic receptor (Rattus norvegicus, UniProt P43140).
T1 sequence (P43140 whole entry): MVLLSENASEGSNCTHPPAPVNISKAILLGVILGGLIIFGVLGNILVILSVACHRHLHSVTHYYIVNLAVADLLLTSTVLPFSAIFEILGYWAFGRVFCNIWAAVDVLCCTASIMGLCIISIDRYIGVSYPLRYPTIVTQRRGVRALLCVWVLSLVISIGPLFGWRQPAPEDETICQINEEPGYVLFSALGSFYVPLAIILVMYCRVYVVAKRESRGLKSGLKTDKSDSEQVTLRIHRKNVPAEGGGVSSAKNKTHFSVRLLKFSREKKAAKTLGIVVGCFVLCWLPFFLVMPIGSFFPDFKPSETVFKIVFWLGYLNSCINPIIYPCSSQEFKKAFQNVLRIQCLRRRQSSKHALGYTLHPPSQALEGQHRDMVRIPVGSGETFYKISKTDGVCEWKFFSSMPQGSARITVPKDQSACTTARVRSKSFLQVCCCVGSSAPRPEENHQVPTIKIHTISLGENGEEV
The experiment in a line: DRUGMATRIX: Alpha-1A adrenergic receptor radioligand binding (ligand: prazosin). The class given is cell membranes, Wistar, Submaxillary gland, Membrane. The following applies: Not Active = under 50% inhibition at 10 µM.

Chains of the proteins cited; added tags and fusions are not shown. Lines headed by an entry give the natural chain unless they say otherwise; changes in a name come on top.
UniProt Q16539, whole entry: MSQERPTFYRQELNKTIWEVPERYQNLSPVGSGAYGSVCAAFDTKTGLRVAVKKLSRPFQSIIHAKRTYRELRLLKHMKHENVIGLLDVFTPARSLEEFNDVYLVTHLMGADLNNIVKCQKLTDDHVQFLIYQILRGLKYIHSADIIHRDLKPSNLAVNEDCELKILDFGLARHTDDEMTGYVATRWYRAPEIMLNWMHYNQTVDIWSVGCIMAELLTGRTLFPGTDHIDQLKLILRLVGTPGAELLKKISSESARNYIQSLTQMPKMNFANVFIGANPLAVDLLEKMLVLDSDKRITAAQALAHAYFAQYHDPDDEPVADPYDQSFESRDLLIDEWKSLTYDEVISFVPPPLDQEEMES
UniProt P41595, whole entry: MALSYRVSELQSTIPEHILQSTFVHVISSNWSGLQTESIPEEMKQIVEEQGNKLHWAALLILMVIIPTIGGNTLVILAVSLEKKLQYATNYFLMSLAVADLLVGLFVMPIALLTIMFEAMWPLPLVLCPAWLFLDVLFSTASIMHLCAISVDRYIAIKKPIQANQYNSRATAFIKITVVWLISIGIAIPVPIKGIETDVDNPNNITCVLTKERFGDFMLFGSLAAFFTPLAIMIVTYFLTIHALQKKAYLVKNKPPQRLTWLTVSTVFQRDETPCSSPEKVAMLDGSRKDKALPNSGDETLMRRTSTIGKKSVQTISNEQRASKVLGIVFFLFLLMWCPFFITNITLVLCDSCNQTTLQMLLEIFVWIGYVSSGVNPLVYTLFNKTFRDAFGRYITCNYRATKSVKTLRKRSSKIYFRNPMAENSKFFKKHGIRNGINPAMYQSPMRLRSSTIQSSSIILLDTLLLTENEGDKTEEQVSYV
UniProt Q99720, whole entry: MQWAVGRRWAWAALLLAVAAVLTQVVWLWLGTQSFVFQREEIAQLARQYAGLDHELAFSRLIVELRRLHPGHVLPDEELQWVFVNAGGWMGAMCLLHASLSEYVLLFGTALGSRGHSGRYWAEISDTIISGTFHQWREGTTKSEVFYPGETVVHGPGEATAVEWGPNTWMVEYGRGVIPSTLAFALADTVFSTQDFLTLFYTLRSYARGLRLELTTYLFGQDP
UniProt P15823, whole entry: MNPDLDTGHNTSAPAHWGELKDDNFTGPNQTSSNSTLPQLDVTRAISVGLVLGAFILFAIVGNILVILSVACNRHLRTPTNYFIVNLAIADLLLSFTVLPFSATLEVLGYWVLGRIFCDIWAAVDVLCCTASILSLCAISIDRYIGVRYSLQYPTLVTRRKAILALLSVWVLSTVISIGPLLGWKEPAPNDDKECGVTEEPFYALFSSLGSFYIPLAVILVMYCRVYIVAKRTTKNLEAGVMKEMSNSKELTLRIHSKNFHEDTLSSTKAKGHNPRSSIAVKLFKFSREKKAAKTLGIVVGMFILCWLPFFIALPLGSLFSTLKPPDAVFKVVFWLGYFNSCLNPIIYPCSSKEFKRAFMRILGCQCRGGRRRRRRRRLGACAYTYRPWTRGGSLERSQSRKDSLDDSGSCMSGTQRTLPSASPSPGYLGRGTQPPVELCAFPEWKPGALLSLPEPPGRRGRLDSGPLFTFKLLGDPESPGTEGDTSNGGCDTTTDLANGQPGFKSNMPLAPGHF
UniProt P23219, whole entry: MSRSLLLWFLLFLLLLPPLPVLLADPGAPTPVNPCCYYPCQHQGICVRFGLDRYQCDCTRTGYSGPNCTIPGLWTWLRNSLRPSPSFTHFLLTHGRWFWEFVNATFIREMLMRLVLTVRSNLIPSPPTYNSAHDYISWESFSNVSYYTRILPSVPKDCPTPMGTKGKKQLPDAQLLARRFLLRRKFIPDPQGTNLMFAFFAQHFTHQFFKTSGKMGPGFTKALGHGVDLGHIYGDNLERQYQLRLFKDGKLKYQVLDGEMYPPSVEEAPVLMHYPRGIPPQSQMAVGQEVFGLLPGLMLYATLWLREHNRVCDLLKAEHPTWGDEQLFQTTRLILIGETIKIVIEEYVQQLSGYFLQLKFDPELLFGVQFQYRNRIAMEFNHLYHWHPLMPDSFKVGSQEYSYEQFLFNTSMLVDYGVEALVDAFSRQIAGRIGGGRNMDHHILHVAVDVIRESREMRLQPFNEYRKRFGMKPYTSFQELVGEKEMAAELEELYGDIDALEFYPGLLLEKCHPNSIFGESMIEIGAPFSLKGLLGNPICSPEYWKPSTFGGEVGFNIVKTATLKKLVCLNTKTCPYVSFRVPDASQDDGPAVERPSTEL
UniProt P22303: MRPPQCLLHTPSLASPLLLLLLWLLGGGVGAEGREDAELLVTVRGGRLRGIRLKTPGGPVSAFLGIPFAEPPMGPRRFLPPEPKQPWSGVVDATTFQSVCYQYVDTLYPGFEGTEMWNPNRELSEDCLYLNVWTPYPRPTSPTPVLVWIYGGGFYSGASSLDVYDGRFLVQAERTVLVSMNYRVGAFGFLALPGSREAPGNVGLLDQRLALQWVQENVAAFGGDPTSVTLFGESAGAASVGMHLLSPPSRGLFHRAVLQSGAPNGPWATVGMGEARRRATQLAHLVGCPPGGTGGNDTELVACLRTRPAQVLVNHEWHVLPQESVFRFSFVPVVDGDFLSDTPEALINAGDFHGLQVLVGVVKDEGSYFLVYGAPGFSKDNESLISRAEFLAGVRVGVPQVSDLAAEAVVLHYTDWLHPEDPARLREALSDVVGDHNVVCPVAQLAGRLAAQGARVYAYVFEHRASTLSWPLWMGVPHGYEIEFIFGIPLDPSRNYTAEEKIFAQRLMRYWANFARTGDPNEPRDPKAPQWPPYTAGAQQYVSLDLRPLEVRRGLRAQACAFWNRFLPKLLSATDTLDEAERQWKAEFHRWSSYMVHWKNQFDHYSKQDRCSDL
UniProt P08172, whole entry: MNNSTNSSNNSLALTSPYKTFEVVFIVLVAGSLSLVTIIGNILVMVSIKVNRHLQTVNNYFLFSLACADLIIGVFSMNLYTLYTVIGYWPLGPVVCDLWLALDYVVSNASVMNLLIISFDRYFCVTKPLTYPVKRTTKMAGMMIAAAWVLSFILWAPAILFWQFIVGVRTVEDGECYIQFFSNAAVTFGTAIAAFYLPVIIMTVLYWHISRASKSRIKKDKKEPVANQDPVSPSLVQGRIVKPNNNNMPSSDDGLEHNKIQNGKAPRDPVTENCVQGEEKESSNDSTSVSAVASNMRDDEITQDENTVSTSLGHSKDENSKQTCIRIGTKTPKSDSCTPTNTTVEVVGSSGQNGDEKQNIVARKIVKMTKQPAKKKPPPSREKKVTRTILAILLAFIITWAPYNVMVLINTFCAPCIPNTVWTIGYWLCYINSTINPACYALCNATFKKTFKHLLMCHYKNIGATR

Assay [5] has as its target Alpha-1B adrenergic receptor (Rattus norvegicus, UniProt P15823). Put plainly: DRUGMATRIX: Alpha-1B adrenergic receptor radioligand binding (ligand: prazosin). The class given is cell membranes, Wistar, Liver, Membrane. The following applies: Not Active = under 50% inhibition at 10 µM.
Assay [6] addresses Prostaglandin G/H synthase 1 (Homo sapiens, UniProt P23219). Put plainly: biochemical. The class given is tissue-based, Platelet.
The target in another assay is Acetylcholinesterase (Homo sapiens, UniProt P22303). The experiment in a line: DRUGMATRIX: Acetylcholinesterase enzyme inhibition (substrate: acetylthiocholine). The following applies: Not Active = under 50% inhibition at 10 µM. The class given is cell-based, HEK293.
Assay [7] addresses Muscarinic acetylcholine receptor M2 (Homo sapiens, UniProt P08172). It is filed as cell membranes, CHO-K1, Membrane.

SMILES strings stand for the structures.

Usually IC50 stands for the concentration at which inhibition is half-maximal. The term Ki denotes the equilibrium dissociation constant of an inhibitor or competing ligand from its target. High values mean lower affinity, low ones higher affinity.

In assay [1], `COc1ccccc1C(=O)N1CCC(Cc2ccccc2)CC1` yielded an IC50 of 746 nM.
Take `CC(N)Cc1c[nH]c2ccc(OCc3cccs3)cc12` (configuration not stated) [BW-723C86]: in assay [2], the IC50 was determined as 81.1 nM and the Ki came out at 51.6 nM.
In assay [3], `CN(C)CCCN1c2ccccc2Sc2ccc(Cl)cc21` [CHLORPROMAZINE] came in with an IC50 of 451 nM.
As for `Clc1cccc(Cl)c1N=C1NCCN1` [CLONIDINE], the IC50 in assay [4] was found to be 372 nM; in assay [5], 1850 nM. The Ki was 151 nM in assay [4] and 1020 nM in assay [5].
With `CC(C(=O)O)c1ccc(-c2ccccc2)c(F)c1` (configuration not stated) [FLURBIPROFEN], in assay [6], the IC50 was found to be 21 nM.
The molecule `Oc1c(Cl)cc(Cl)c(Cl)c1Cc1c(O)c(Cl)cc(Cl)c1Cl` [HEXACHLOROPHENE] came in with an IC50 against Acetylcholinesterase of 3010 nM. In other words, the single-digit micromolar range.
In assay [7], `CC(=O)N1CCN(c2ccc(OCC3COC(Cn4ccnc4)(c4ccc(Cl)cc4Cl)O3)cc2)CC1` (configuration not stated) [KETOCONAZOLE] had an IC50 of 26300 nM and a Ki of 9370 nM.
In assay [6], `Oc1ccc(/C=C/c2cc(O)cc(O)c2)cc1` [RESVERATROL] had an IC50 of 625 nM.
In assay [4], `COc1cc2nc(N3CCN(C(=O)C4CCCO4)CC3)nc(N)c2cc1OC` (configuration not stated) [TERAZOSIN] registered an IC50 of 24 nM and a Ki of 9.59 nM.
The like results for `COC(=O)[C@@H]1[C@H]2C[C@H]3c4[nH]c5ccccc5c4CCN3C[C@@H]2CC[C@@H]1O` [YOHIMBINE] were, in that order, 1240 nM and 500 nM.
